Hit rate of the full screen: of about 360,000 compounds, about 7,500 (2.1%) were called active. All entries are inconclusive by the source's own rule. Clear calls are listed elsewhere. Calls follow the shape of the dose curve; as a rule, active = well fitted inhibition curve with a large enough effect; inconclusive = small, poorly fitted or top-dose-only effect, or effect the other way; inactive = flat fitted curve, though single readings scatter.
Experiment: Nrf2 qHTS screen for inhibitors; also: nearly all actives have a fitted effect of over 60% in size
Details: A549 ARE-Fluc reporter, luciferase luminescence, 18-24 h
Potency is read from the fitted curve at half-maximal effect.

SMILES	Potency
O=P(Nc1nc2ccc(Cl)cc2s1)(c1ccccc1)c1ccccc1	inconclusive: 23.1 µM
CCN(N=Nc1nonc1N)c1nonc1N	inconclusive: 16.4 µM
CCOc1ccc(C2=NCC(CBr)S2)cc1 (centres undefined)	inconclusive: 5.17 µM
Cc1ccc(OP(=O)(Nc2ccccn2)Oc2ccc(C)cc2)cc1	inconclusive: 29.1 µM
O=c1c2cc([N+](=O)[O-])ccc2[nH]c2c([N+](=O)[O-])cc([N+](=O)[O-])cc12	inconclusive: 29.1 µM
COc1ccc(N)c([N+](=O)[O-])c1[N+](=O)[O-]	inconclusive: 1.64 µM
CC(C)/C=N\N=C(\N)N[N+](=O)[O-]	inconclusive: 6.51 µM
O=[As](O)(c1cccc(O)c1)c1cccc(O)c1	inconclusive: 0.0052 µM
O=P1(N(CCCl)CCCl)Nc2ccccc2N1	inconclusive: 20.6 µM
Cc1ccc2nc3c(c(C)c2c1)CC(C(Cl)Cl)S3 (centres undefined)	inconclusive: 18.4 µM
CC(C)c1ccc(OP(=O)(Nc2ccccn2)Oc2ccccc2F)cc1 (centres undefined)	inconclusive: 16.4 µM
CCN(CC)C(=S)SC(NC=O)C(Cl)(Cl)Cl (centres undefined)	inconclusive: 0.0461 µM
O=[N+]([O-])c1cc([N+](=O)[O-])c(-c2ccn[nH]2)s1	inconclusive: 20.6 µM
CCC(C)N(CC(C)C)C(=S)SC(NC(C)=O)C(Cl)(Cl)Cl (centres undefined)	inconclusive: 29.1 µM

From PubChem BioAssay AID504444 (National Center for Advancing Translational Sciences (NCATS), 2011)
